The target in assay [1] is mushroom tyrosinase from Agaricus bisporus (Agaricus bisporus, UniProt C7FF04). Kind of assay: Enzyme-activity assay with mushroom tyrosinase, L-DOPA substrate, dopachrome absorbance at 475 nm. It is filed as biochemical.
In assay [2] the target is T1, mushroom tyrosinase (Agaricus bisporus, UniProt C7FF04). Kind of assay: Differential scanning fluorimetry (DSF) with SYPRO Orange. In kind it is binding. The note with it: 500 μM inhibitor; mean ± SD of three experiments; DMSO control 49.16. For orientation: DSF heats the sample and reads unfolding from a dye or from intrinsic fluorescence.
The next assay addresses tyrosinase (Agaricus bisporus, UniProt C7FF04). Kind of assay: Enzyme-inhibitory kinetics (Michaelis-Menten fitting with inhibition models). It is filed as biochemical, mushroom. To be noted: model chosen by F-test on reduced χ2.
For assay [3], the target named is T1, mushroom tyrosinase. The note with it: cited from earlier work.

The chains behind the UniProt entries cited, without tags or fusion partners. Residues count along the entry.
UniProt C7FF04, 1-392: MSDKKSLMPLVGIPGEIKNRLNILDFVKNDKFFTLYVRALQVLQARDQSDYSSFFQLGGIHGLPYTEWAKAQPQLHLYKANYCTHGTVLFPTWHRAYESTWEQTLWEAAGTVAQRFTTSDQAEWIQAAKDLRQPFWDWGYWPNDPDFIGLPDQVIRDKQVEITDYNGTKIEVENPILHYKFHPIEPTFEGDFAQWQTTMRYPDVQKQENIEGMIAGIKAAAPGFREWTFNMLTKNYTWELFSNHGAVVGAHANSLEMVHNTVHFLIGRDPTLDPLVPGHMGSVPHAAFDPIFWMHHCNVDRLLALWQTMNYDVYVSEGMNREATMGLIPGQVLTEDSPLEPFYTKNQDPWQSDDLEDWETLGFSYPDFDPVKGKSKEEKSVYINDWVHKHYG

As a reminder, the Tm is the temperature at the midpoint of the melting transition. In the case of `O=C(CCCCCCC(=O)Nc1ccccc1)NO` [Vorinostat, suberanilohydroxamic acid], the “Ki values as worded in the text (words or range with mixed units)” value in assay [1] is “submicromolar range”. In addition, at mushroom tyrosinase [2], the midpoint of thermal melting (Tm) was determined as 47.50 ± 0.07 °C. For the same molecule, the “Kinetics model (mode of inhibition)” value at tyrosinase is listed as “noncompetitive”. Further, on mushroom tyrosinase [3], the “Inhibition against mushroom tyrosinase (in words)” value is “little inhibition”.

The values above are taken from publication PMC8868331, “Hydroxamic Acid as a Potent Metal-Binding Group for Inhibiting Tyrosinase” (Antioxidants, 2022).
